Laboratory results: US7985733B1, “Buffer-based method for preparing bivalirudin drug product” (The Medicines Company, priority 2010, dated 2011)

Assay: Addition of base to a bivalirudin salt solution: precipitate as pH passes through the pI
Assay type: physicochemical
Details: 2.0 g solid bivalirudin salt in 40 mL sterile WFI
Protocol: Base was added to a bivalirudin salt solution to confirm the formation of a bivalirudin precipitate as the pH of the solution passes through the pI of bivalirudin.
Solid bivalirudin salt (2.0 g) was added to 40 mL of sterile WFI to form a bivalirudin salt solution having a pH of 1.81. Sodium hydroxide (1 N) was added drop-wise to the bivalirudin salt solution and the pH was monitored. Qualitative observations were recorded for the precipitate that formed, as described in Table 11.

CC[C@H](C)[C@H](NC(=O)[C@H](CCC(=O)O)NC(=O)[C@H](CCC(=O)O)NC(=O)[C@H](Cc1ccccc1)NC(=O)[C@H](CC(=O)O)NC(=O)CNC(=O)[C@H](CC(N)=O)NC(=O)CNC(=O)CNC(=O)CNC(=O)CNC(=O)[C@@H]1CCCN1C(=O)[C@H](CCCNC(=N)N)NC(=O)[C@@H]1CCCN1C(=O)[C@H](N)Cc1ccccc1)C(=O)N1CCC[C@H]1C(=O)N[C@@H](CCC(=O)O)C(=O)N[C@@H](CCC(=O)O)C(=O)N[C@@H](Cc1ccc(O)cc1)C(=O)N[C@@H](CC(C)C)C(=O)O.O=C(O)C(F)(F)F [Bivalirudin salt solution, D-Phenylalanyl-L-Prolyl-L-Arginyl-L-Prolyl-Glycyl-Glycyl-Glycyl-Glycyl-L-Asparagyl-Glycyl-L-Aspartyl-L-Phenylalanyl-L-Glutamyl-L-Glutamyl-L-Isoleucyl-L-Prolyl-L-Glutamyl-L-Glutamyl-L-Tyrosyl-L-Leucine trifluoroacetate salt]
pH of bivalirudin salt solution: 1.81
